This passage reports inhibition results from ChEMBL document CHEMBL3603811, “Design, chemical synthesis and biological evaluation of 3-spiromorpholinone/3-spirocarbamate androsterone derivatives as inhibitors of 17β-hydroxysteroid dehydrogenase type 3” (Bioorg Med Chem, 2015).

Usually inhibition stands for the drop in the measured response relative to a control, in per cent.

The experiment addresses T1, 17-beta-hydroxysteroid dehydrogenase type 3 (Rattus norvegicus) (UniProt O54939).
T1 sequence (whole entry): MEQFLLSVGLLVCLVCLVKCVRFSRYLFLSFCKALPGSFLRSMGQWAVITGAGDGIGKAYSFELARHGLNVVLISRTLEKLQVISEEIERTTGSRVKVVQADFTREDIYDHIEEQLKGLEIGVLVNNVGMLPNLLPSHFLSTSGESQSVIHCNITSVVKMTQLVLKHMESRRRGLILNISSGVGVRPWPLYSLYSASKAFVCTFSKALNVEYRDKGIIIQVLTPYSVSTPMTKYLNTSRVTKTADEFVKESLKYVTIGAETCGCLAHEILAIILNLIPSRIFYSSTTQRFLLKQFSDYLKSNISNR
The experiment is described as follows: Inhibition of 17beta-HSD3 in rat testes microsomes using [14C]-4-androstene-3,17-dione as substrate measured based on 18% of initial enzyme transformation at 1 uM after 2 hrs. The following applies: Testis. The procedure, abridged:
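Rat testis microsomes: homogenate in phosphate/sucrose/EDTA buffer pH 7.5 with protease inhibitors, spun 12,500g, then pellet from 100,000g, at 4 °C. Reaction 2 h at 37 °C in 50 mM sodium phosphate pH 7.4, 20% glycerol, 1 mM EDTA, with NADPH and [14C]-Δ4-dione (50 nM). Inhibitor in DMSO. [14C]-T and substrate identified against reference steroids and quantified. Percent transformation and percent inhibition calculated.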

As to `C[C@@H]1CN(S(=O)(=O)c2ccccc2C(F)(F)F)[C@@H](C)CN1C[C@@]1(O)CC[C@@]2(C)[C@@H](CC[C@@H]3[C@@H]2CC[C@]2(C)C(=O)CC[C@@H]32)C1`, the inhibition was found to be 92.1%.
